System: SU-DHL-4 xenograft
Experiment: SU-DHL-4 DLBCL tumor xenograft study in mice
Conditions: 100 mg/kg oral dosing 1×/day
Method: Tumor Xenograft Studies in Mice
5×10^6 MV-4-11 or 1×10^7 SU-DHL-4 cells were collected and re-suspended in 0.1 mL of serum-free media with Matrigel (1:1 v/v) per mouse for subcutaneous inoculation in isoflurane anesthetized male BALB/c nude or C.B-17 scid mice, respectively (treated in accordance with AAALAC animal welfare guidelines). When the average tumor volumes reached 100-200 mm^3, tumor volume outliers were removed and the remaining animals randomly divided into groups of 6-8 with similar average tumor volumes in each group. […] Animals were intravenously dosed at 25 mg/kg, 50 mg/kg or 100 mg/kg 1×/week for 3 or 4 weeks. The appearance and behavior of each mouse was observed and recorded daily. Body weights and tumor volumes were measured and recorded every 2-4 days and the results were expressed as group means±SEM. Pairwise statistical comparisons between groups were performed by one-way ANOVA, and p<0.05 was considered statistically significant.

Structure (SMILES): Cc1sc2c(c1C)C(c1ccc(Cl)cc1)=N[C@@H](CC(=O)Nc1ccc(O)cc1)c1nnc(C)n1-2 [OTX-015, reference compound]
- T/C value: 45%

Reference: patent US20220168427A1 (Ranok Therapeutics (Hangzhou) Co. Ltd., priority 2019, published 2022)
